{"sequences": {"note": "Amino acid sequences for entries named in this document (tags omitted). Residues count along the entry.", "UniProt P63099, 2-170": "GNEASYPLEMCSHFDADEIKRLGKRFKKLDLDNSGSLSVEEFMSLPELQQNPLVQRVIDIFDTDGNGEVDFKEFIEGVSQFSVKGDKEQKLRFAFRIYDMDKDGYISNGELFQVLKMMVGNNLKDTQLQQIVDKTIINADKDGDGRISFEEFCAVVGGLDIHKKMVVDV"}, "source": "paper PMC2119351", "about": "(The Journal of Experimental Medicine, 1992)", "target": "calcineurin (Bos taurus, UniProt P48452+P62942+P63099)", "format": "biochemical", "note": "pIC50: −log10 of the molar value."}
{"compound": "CC[C@@H]1/C=C(\\C)C[C@H](C)C[C@H](OC)[C@H]2O[C@@](O)(C(=O)C(=O)N3CCCC[C@H]3C(=O)O[C@H](/C(C)=C/[C@@H]3CC[C@@H](O)[C@H](OC)C3)[C@H](C)[C@@H](O)CC1=O)[C@H](C)C[C@@H]2OC", "note": "[L-683,590]", "values": [{"measurement": "pIC50", "value": 6.97}]}
